For assay [1], the target named is T1, [Fe2S2] cluster of ISP of R. capsulatus chromatophore membranes (Rhodobacter capsulatus, UniProt D5ANZ2+D5ANZ3).
T1 sequence (D5ANZ2 1-191): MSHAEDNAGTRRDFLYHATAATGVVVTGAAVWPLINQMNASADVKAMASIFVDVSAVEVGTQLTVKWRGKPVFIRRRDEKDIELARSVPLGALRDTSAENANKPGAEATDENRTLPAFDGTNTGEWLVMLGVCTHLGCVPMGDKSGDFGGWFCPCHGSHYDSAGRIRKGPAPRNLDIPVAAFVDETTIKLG
T1 sequence (D5ANZ3 1-437): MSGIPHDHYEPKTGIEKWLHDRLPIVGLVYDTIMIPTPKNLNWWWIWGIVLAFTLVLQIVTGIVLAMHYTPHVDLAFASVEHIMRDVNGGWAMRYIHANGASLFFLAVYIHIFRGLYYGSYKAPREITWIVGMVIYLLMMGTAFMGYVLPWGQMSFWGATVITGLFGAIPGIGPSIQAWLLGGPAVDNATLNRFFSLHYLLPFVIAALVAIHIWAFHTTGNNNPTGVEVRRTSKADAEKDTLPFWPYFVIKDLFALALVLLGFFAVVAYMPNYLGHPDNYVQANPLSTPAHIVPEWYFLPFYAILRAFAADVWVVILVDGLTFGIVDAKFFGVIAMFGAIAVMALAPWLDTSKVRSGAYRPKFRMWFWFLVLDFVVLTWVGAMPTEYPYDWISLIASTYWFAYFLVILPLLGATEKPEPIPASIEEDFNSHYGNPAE
T1 sequence (D5ANZ4 22-279 partner): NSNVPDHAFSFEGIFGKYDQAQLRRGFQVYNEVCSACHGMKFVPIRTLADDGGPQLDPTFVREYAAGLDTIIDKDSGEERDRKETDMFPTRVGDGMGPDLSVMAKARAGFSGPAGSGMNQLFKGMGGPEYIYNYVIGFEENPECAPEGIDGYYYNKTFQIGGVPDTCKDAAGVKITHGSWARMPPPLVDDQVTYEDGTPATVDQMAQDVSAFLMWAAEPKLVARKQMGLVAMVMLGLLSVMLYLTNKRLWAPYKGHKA
To be noted: 100 μM inhibitor, 5 mM ascorbate; for gx (EPR g value): Table 6.

In assay [2] the test system is strain of yeast engineered with the G143A mutation. Put plainly: cross-resistance test on engineered yeast. To be noted: G143A mutation responsible for fungicide resistance.

As for `C[C@@]1(c2ccc(Oc3ccccc3)cc2)OC(=O)N(Nc2ccccc2)C1=O` (racemic) [Compound 4, Famoxadone], in assay [1], the “gy (EPR g value)” value was 1.903 and the “gx (EPR g value)” value is recorded as 1.786. On to `C/C=C(C)/C=C/C=C/[C@H](OC)[C@@H](C)[C@@H](OC)[C@@H](C)CCc1oc2c(O)c(OC)cc(OC)c2c(=O)c1C` [Compound 2, stigmatellin], for which, in assay [1], the “gx transition (EPR)” value is listed as 1.782 and the “gy (EPR g value)” value was 1.891. With `CO/C(=C/C(N)=O)[C@H](C)[C@H](/C=C/c1csc(-c2csc([C@@H](C)/C=C/C=C/C(C)C)n2)n1)OC` [Compound 5, myxothiazole], in assay [1], the “gy (EPR g value)” value is given as 1.901 and the “gx (EPR g value)” value was 1.771. Turning to `COC(=O)CNC(=O)/C=C\C/C=C\NC(=O)/C=C(C)/C=C/[C@H](C)[C@H](OC)[C@H](C)[C@H](/C=C/c1ccccc1)OC` [Compound 8, crocacin A], the “cross-resistance against yeast with G143A mutation” value in assay [2] is listed as “little or no cross-resistance”. In the case of `COC(=O)CNC(=O)CCC/C=C\NC(=O)c1ccc(Cc2ccc(I)cc2)cc1` [Compound 16], the “gx (EPR g value)” value in assay [1] was found to be 1.793.

Regarding `COC(=O)COc1ccc2oc(=O)n(Cc3ccc(Cc4ccc(I)cc4)cc3)c2c1` [Compound 19], in assay [1], the “gy (EPR g value)” value was found to be 1.897 and the “gx (EPR g value)” value was 1.808.

The values are drawn from publication PMC2784635 (Bioorganic & medicinal chemistry, 2008).
